Only a part is listed here, and it is no random draw. Active and inactive are the calls of the source.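 The calls were made as follows: active = inhibition above the plate's mean compound inhibition plus 3 SD, computed per plate (cut at about 22% in these data); inactive = the rest.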
Assay: inhibition of ATP-evoked calcium response in CHO-Ga16 cells, counter-screen for TAAR1 agonist project, cell-based, fluorescence (AID 651952);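 also: 0% = EC80 ATP with DMSO and 100% = DMSO wells without ATP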
Settings: CHO-Ga16 ATP-induced calcium, Fluo-8 fluorescence; at 3 µM; stronger effect = higher value
Method in brief: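 Compound – 3 µM single dose · Material – Gα16-expressing CHO parent cells · Measured by – Fluo-8 calcium fluorescence · Reagent – ATP purinergic agonist at EC80, added after compound · Repeats – triplicate wells per compound · Incubation – 17–24 h seeding, dye 75 min 37 °C, 30 min RT · Benchmarks – DMSO-only and ATP-stimulated wells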

SMILES | inhibition
CP(=O)(OC12CC3CC(CC(C3)C1)C2)OC12CC3CC(CC(C3)C1)C2 | inactive: -0.18%

Reference: PubChem BioAssay AID651952 (The Scripps Research Institute Molecular Screening Center, 2012)
